The list is not random: actives were taken first. Their share in the collection is about 16%.
TDP1 block – blocks human tyrosyl-DNA phosphodiesterase 1; recombinant TDP1, AlphaScreen DNA substrate cleavage; Potency, µM (series often up to 130 µM), for inactives: at the highest dose activity change, negative = inhibition, most hits filed as inhibitors; 350,000 tested, 0.28% active; also: potency is read from the fitted curve at half-maximal effect; % is scaled to controls: 0 for no effect and ±100 for the full control effect; nearly all actives have a fitted effect of over 40% in size
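Recombinant E. coli-expressed Tdp1 (1 nM) preincubated with compound 15 min at RT, then 5'-biotin/3'-phosphotyrosine-FITC DNA substrate (15 nM) added for 5 min. AlphaScreen beads (10 ug/ml) added, 10 min RT; tyrosine-FITC cleavage read as signal loss.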
TDP1 cell CPT – growth inhibition of DT40 Tdp1-/-;hTDP1 cells with camptothecin (screen for TDP1 inhibitors) | chicken DT40 Tdp1-/-;hTDP1 cells + 20 nM CPT, ATP luminescence, 48 h | 420,000 tested, 12% active | Potency, µM (doses to about 46.2 µM), without a hit: top-dose activity change, negative = growth inhibition, actives largely listed as inhibitors; also: potency is read from the fitted curve at half-maximal effect; % is scaled to controls: 0 for no effect and ±100 for the full control effect; nearly all actives have a fitted effect of over 55% in size
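Cell growth measured by CellTiter-Glo luminescence after a minimum 48 h, 37 C compound exposure with 20 nM CPT in Tdp1-knockout DT40 cells stably expressing hTDP1, seeded 400/well; qHTS titration format.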
miR-21 reporter – raises the signal of a miR-21 reporter; HeLa miR-21 FLuc reporter, luciferase, 48 h; Potency, µM (top dose mostly 38.3 µM), for inactives: at the highest dose reporter change, positive = more light; AID 2288; 340,000 tested, under 10 active; active = well fitted rising curve with a large enough effect; inconclusive = small, poorly fitted or top-dose-only effect; inactive = no such curve, though single readings can be large or run the other way;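 note: % of control where 0% means no effect; miR-21 action dims this reporter so a rising signal means less miR-21 action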
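HeLa cells endogenously expressing miR-21, stably carrying CMV-driven firefly luciferase with a downstream miR-21 binding site, 2000 cells/well. Titrations up to approximately 40 uM, 48 hours; luciferase luminescence read.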
DT40 TDP1 no CPT – qHTS for Inhibitors of human tyrosyl-DNA phosphodiesterase 1 (TDP1): qHTS in cells in absence of CPT; 420,000 tested, 15% active; AID 686978, 2013; DT40 Tdp1-/- hTDP1 cells, no CPT, ATP luminescence, 48 h; Potency, µM (doses to about 46.2 µM), for inactives: at the highest dose activity change, negative = growth inhibition, most hits filed as inhibitors; also: potency is read from the fitted curve at half-maximal effect; % is scaled to controls: 0 for no effect and ±100 for the full control effect; nearly all actives have a fitted effect of over 55% in size
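No-CPT arm: Tdp1-/-;hTDP1 DT40 cells (400/well) plus compounds, incubated ≥48 hr at 37 °C. Readout CellTiter-Glo luminescence.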
uPA generation – cell surface uPA generation inhibition. AID 540303. Potency, µM (top dose mostly 38.3 µM), without a hit: top-dose activity change, negative = inhibition, most hits filed as inhibitors. cell surface uPA generation assay, qHTS. 330,000 tested, 0.31% active; active = well fitted inhibition curve with a large enough effect; inconclusive = small, poorly fitted or top-dose-only effect; inactive = no such curve, though single readings can be large or run the other way; tested in mouse RAW 264.7 cells; also: potency is read from the fitted curve at half-maximal effect; % is scaled to controls: 0 for no effect and ±100 for the full control effect; nearly all actives have a fitted effect of over 55% in size
Numbers without * were called inactive; ? = inconclusive; / = not tested or not shown; [ ] = another dose, or the depositor's remark. Unless noted, calls follow the shape of the dose curve; as a rule, active = well fitted curve in the direction sought with a large enough effect; inconclusive = small, poorly fitted or top-dose-only effect, or another doubt; inactive = no such curve, though single readings can be large; an effect the other way counts as inactive or inconclusive.

SMILES	TDP1 block	TDP1 cell CPT	miR-21 reporter	DT40 TDP1 no CPT	uPA generation
O=C(C[C@H]1C/C=C\CC[C@@H](Cc2ccc(F)cc2)C(=O)O[C@@H](c2ccccc2)CNC1=O)N[C@H](CO)Cc1ccccc1	0%	18µM*	/	?	2%
O=C(C[C@H]1C/C=C\C[C@@H](Cc2ccc(F)cc2)C(=O)O[C@H](c2ccccc2)CNC1=O)N[C@@H](CO)Cc1ccccc1	-1%	-22%	/	?	6%
Cc1cc(C2C(C#N)=C(N)OC3=C2C(=O)CC(C)(C)C3)c(C)s1 (stereo not drawn)	-2%	1%	0%	?	-1%
O=C1C=C(c2cccc(CO)c2)C[C@@H](c2ccc(Cl)cc2)C1	1%	?	/	?	4%
Cc1cccc(S(=O)(=O)NCCNS(=O)(=O)c2cccc(C)c2)c1	/	-24%	3%	?	1%
CCCCCCCCNS(=O)(=O)CCNC1CC1	/	?	/	-20%	16%
Cc1ccc(OCC(=O)N(Cc2ccco2)C2CCS(=O)(=O)C2)cc1 (stereo not drawn)	6%	-5%	-5%	9%	2%
Cc1cc(NC(=O)C(C)(C)Oc2ccc(Cl)cc2)cc(-c2nc3ncccc3o2)c1O	3%	8%	0%	3%	/
CC(C)(C)OC(=O)C[C@H]1C/C=C\C[C@@H](CC(=O)N[C@H](CO)Cc2ccccc2)C(=O)NC[C@H](c2ccccc2)OC1=O	1%	?	/	23µM*	-14%
O=C(Nc1cccc(Cn2cccn2)c1)c1cc2c(s1)CCCC2	-4%	?	-14%	11µM*	/
CC(=O)Nc1cccc(Cn2cccn2)c1	2%	/	-8%	/	/
CCC(=O)c1ccc(OCC(=O)N2CCCC2)c(OC)c1	/	6%	-5%	-18%	-5%
Cc1cccc(-n2c(O)c(C=Nc3cc(O)ccc3C)c3ccccc3c2=O)n1	-3%	21µM*	-7%	?	1%
COc1ccc(C(=O)Nc2ccc(C3=NNC(=O)CC3C)cc2NC(=O)c2ccc(OC)cc2)cc1 (stereo not drawn)	5%	?	5%	23µM*	-4%
COc1ccc(C(=O)Nc2ccc(C(=O)O)cc2NC(=O)c2ccc(OC)cc2)cc1	/	-2%	0%	-5%	13%
CCC(C)NC(=O)CSc1nnc(-c2cc(-c3cccs3)nc3ccccc23)o1 (stereo not drawn)	-1%	?	6%	18µM*	-5%
CC(Nc1ccc(Br)cc1)C(=O)N/N=C/c1ccccc1OCc1ccccc1 (stereo not drawn)	6%	?	-3%	?	0%
COc1ccc(NC(C)C(=O)N/N=C/c2ccccc2OCc2ccc(Br)cc2)cc1 (stereo not drawn)	12%	?	-16%	22µM*	-1%
COC(=O)N/N=C/c1ccccc1OCCOc1ccc(OC)cc1	8%	-92%	0%	16µM*	-9%
CCN(CC)C(=O)C(C)OC(=O)COc1ccc(Cl)cc1Cl (stereo not drawn)	6%	2%	0%	-23%	0%
Cc1onc(-c2ccccc2)c1-c1nnc(CN2CCN(S(=O)(=O)c3ccccc3)CC2)o1	1%	15µM*	/	16µM*	-4%
CC(C)OCCCNC(=O)C(NC(=O)c1ccc(Cl)cc1)C(C)C (stereo not drawn)	3%	11%	1%	-2%	1%
COCCCNC(NC(=O)c1ccc(Cl)cc1)C(Cl)(Cl)Cl (stereo not drawn)	0%	?	0%	16µM*	1%
CC(C)OCCCNC(=O)NC(=O)c1ccc(Cl)cc1	0%	?	-16%	26µM*	4%
Cc1nn(CC(=O)Nc2cc(F)ccc2F)c(=O)c2cccn12	3%	-3%	-42%	-16%	/

Nothing new here: six of the compounds above.
SMILES	TDP1 block	TDP1 cell CPT	miR-21 reporter	DT40 TDP1 no CPT	uPA generation
O=C(C[C@H]1C/C=C\CC[C@@H](Cc2ccc(F)cc2)C(=O)O[C@@H](c2ccccc2)CNC1=O)N[C@H](CO)Cc1ccccc1	0%	18µM*	/	?	2%
O=C(C[C@H]1C/C=C\C[C@@H](Cc2ccc(F)cc2)C(=O)O[C@H](c2ccccc2)CNC1=O)N[C@@H](CO)Cc1ccccc1	-1%	-22%	/	?	6%
Cc1cc(C2C(C#N)=C(N)OC3=C2C(=O)CC(C)(C)C3)c(C)s1 (stereo not drawn)	-2%	1%	0%	?	-1%
O=C1C=C(c2cccc(CO)c2)C[C@@H](c2ccc(Cl)cc2)C1	1%	?	/	?	4%
Cc1cccc(S(=O)(=O)NCCNS(=O)(=O)c2cccc(C)c2)c1	/	-24%	3%	?	1%
CCCCCCCCNS(=O)(=O)CCNC1CC1	/	?	/	-20%	16%

Next part
SMILES	TDP1 block	TDP1 cell CPT	miR-21 reporter	DT40 TDP1 no CPT	uPA generation
Cc1ccc(S(=O)(=O)Cc2ccccc2Cl)cc1	-1%	?	16%	21µM*	-13%
Cc1ccc(S(=O)(=O)CCC(=O)NCc2ccccc2Cl)cc1	3%	-13%	-15%	-8%	2%
O=C(C1c2ccccc2Oc2ccccc21)N1CCN(c2ccc(Cl)cc2)CC1	7%	?	3%	15µM*	-2%
COc1ccccc1N1CCN(C(=O)C2c3ccccc3Oc3ccccc32)CC1	6%	2.9µM*	23%	2.9µM*	-14%
Cc1ccc(Oc2cc([N+](=O)[O-])cc3c2C(=O)Nc2ccccc2O3)cc1	2%	?	0%	15µM*	-4%
O=C1Nc2ccccc2Nc2ccc([N+](=O)[O-])cc21	/	-17%	2%	-31%	2%
COC[C@H]1CCCN1c1ccc2c(c1)O[C@@H](COCc1ccccc1)CN([C@@H](C)c1ccccc1)S2(=O)=O	/	10µM*	/	7.3µM*	/
O=S1(=O)c2ccc(Br)cc2OC(COCc2ccccc2)CN1Cc1ccccc1 (stereo not drawn)	-4%[56.1 µM]	?	/	?	?
COC[C@@H]1CCCN1[C@@H]1CS(=O)(=O)N[C@H]1COCc1ccccc1	/	-9%	/	-26%	/
COc1ccc(CN2CC(COCc3ccccc3)Oc3ccccc3S2(=O)=O)cc1 (stereo not drawn)	-3%[56.1 µM]	?	/	?	-10%
COC[C@H]1CCCN1c1ccc2c(c1)O[C@H](COCc1ccccc1)CN([C@@H](C)c1ccccc1)S2(=O)=O	/	?	/	16µM*	/
COC[C@@H]1CCCN1c1ccc2c(c1)O[C@H](COCc1ccccc1)CN([C@H](C)c1ccccc1)S2(=O)=O	/	?	/	21µM*	/
CCCCC[C@@H](C)N1C[C@H](COCc2ccccc2)Oc2cc(N3CCC[C@@H]3COC)ccc2S1(=O)=O	/	?	/	15µM*	/
COc1ccc(Nc2nnc(-c3ccncc3)s2)cc1Cl	/	-13%	-21%	11%	-1%
O=S(=O)(NC1CCCCC1N1CCN(c2ccccc2F)CC1)c1ccc(Cl)cc1 (stereo not drawn)	5%	?	16%	?	-5%
CCN(C[C@H]1N[C@@](CC)(C(=O)OC)[C@H]2C(=O)N(C)C(=O)[C@@H]12)S(=O)(=O)c1ccc(C)cc1	1%	-9%	/	-15%	?
COc1ccc(/C=C/c2cc(=O)c3cc(Cl)ccc3o2)cc1	4%	?	-11%	21µM*	-5%
COc1ccc(-c2cc(=O)c3ccc(O)cc3o2)cc1	8%	?	/	?	?
COc1ccc(-c2cc(=O)c3cc(OC)ccc3o2)cc1	4%[56.1 µM]	4%	-51%	-21%	1.4µM*
COc1ccc(-c2cc(=O)c3c(OC)c(OC)c(OC)c(OC)c3o2)cc1	10%[56.1 µM]	23µM*	/	16µM*	3%

Screens deposited in PubChem by National Center for Advancing Translational Sciences (NCATS).
